Laboratory results as given in patent US11103459B2, “Method of drug formulation based on increasing the affinity of active agents for crystalline microparticle surfaces” (MannKind Corporation, priority 2005, dated 2021).

Assay: Active agent/FDKP microparticle adsorption studies (loading curves, HPLC)
Format: physicochemical
Settings: aqueous solution, presence of salt
Description: Aqueous samples at varying pH and at 20° C. (unless otherwise noted) were analyzed.
The association of active agent with diketopiperazine (DKP) particles in suspension was evaluated by conducting adsorption studies.
Unbound active agent in the supernatant was filtered off the suspension. […] The amount of active agent in both the supernatant and reconstituted fractions was quantitated by HPLC. A series of experiments were conducted in which conditions employed included use of additives such as salts, osmolytes, chaotropes and kosmotropes, and alcohols.
The concentration of the chaotrope or kosmotrope in the samples was held constant at 100 mM and the pH varied from 2.0 to 5.0. Chaotropes or kosmotropes were selected from the following: NaSCN, CsCl, Na2SO4, (CH3)3N—HCl, […], Na Citrate, and NaClO4. The control indicates no chaotrope or kosmotrope were added. […]
In assessing the effect of modifiers on the active agent that allows for adsorption to the microparticle surface by a hydrophobic mechanism, the effect of alcohols were examined. […] Each alcohol was evaluated at varying concentrations which include 5%, 10%, 15%, or 20% v/v.
The amount of active agent detected in reconstituted microparticle-free control samples as a function of pH and NaCl concentration was assessed. […]

With Texas Red [reference compound] the “partitioning of dye onto the microparticle surface” value was “partition the dye Texas Red onto the surface of the microparticle”.
